scFv variants of Ab-95 (light chain) against a SARS-CoV-2 spike peptide

The measurements come from Engelhart et al. 2022 (doi:10.1038/s41597-022-01779-4) through the FLAb antibody collection.

Target: peptide PDVDLGDISGINAS, taken from heptad repeat 2 (HR2) of SARS-CoV-2 spike.

Each scFv is VH, a 15-residue (Gly4Ser)3 linker, VL, as in the parent Ab-95, and differs from it in the CDRs of the light chain only.
VH: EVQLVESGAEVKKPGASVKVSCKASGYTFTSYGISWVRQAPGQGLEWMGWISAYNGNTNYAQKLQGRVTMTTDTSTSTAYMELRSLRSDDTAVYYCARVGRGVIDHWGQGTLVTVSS
VL: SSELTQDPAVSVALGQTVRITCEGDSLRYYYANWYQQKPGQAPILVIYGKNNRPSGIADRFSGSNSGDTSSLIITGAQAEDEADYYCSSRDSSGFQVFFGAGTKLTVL

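The starting antibody came from a phage panning campaign against this peptide. The library (AAYL52) carries one to three amino acid substitutions per variant, with no insertions or deletions. The scFvs were displayed on barcoded MATa yeast, the peptide on MATalpha yeast. Pairs that bind mate more often; barcode pairs of the diploids are counted by sequencing. The ratio of observed to expected reads was calibrated, replicate by replicate, on BCL2-family standards whose Kd was known from biolayer interferometry. The assay was run in three technical replicates.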

Variants are written as CDR1, CDR2 and CDR3 of the light chain (limits as in the source). Parent: EGDSLRYYYAN, GKNNRPS, SSRDSSGFQVF.
Every variant below is changed at Y30 of the VL (sequential numbering).
Kd is apparent (estimated from mating counts) and averaged on the log scale over replicates with a signal. Smaller is tighter.
"no signal" means that the variant was in the library but no mating with the target was seen in any replicate; the authors take this as a sign of poor binding, and no number exists.
Three control strains display no target. For library AAYL52, 28% of the pairings with them gave a signal, with a median of 8.2 µM and one signal in twenty below 800 nM, so weak values seen in few replicates may be background.
For reference, the parent read 200 nM as the reference entry and 180 nM as a member of this library.

For EGDRLRYCYAN | LKNNRPS | SSRDSSGFQVF, the assay gave no signal (0 of 3 replicates). For IGDSLRYGYAN | GKNNRPS | SERDSSGFQVF, the assay gave 17 nM (3 of 3 replicates). For EGDSLRYQYAN | GKNNRPS | SSRDSSGFMTF, the assay gave 19 nM (3 of 3 replicates). For EGDSLRYPYAN | GKNWRPS | SKRDSSGFQVF, the assay gave 1.1 µM (3 of 3 replicates). Variant EGDSLRDPYAN | GKNNRPS | SSRDSSGFQVF gave 66 nM (3 of 3 replicates). For EGDSLRYMYAN | GKNMRPS | SPRDSSGFQVF, the assay gave 860 nM (3 of 3 replicates). Variant EGDSQRYDYAN | GKNNVPS | SSRDSSGFQVF showed 5.2 µM (3 of 3 replicates).

With EGDSLCYLYAN | GKNNRPS | SSRDSNGFQVF the result was 2.9 µM (3 of 3 replicates). For EGDSLRYDYAN | GKNNRPS | SSRDSSQFQVF, the assay gave 360 nM (3 of 3 replicates). Variant GGDSLRYNYAI | GKNNRPS | SSRDSSGFQVF gave 400 nM (3 of 3 replicates). Variant EGDSLRYWYAN | GKNPRPS | SSRDSSGFQAF showed 320 nM (3 of 3 replicates). With EGDMLRYEYAN | GKSNRPS | SSRDSSGFQVF the result was 220 nM (3 of 3 replicates). Variant EGDSLRYRYAN | GKNNRPS | SSLDSSGFNVF gave 350 nM (3 of 3 replicates). With EGDSLRYGYAN | GKNNRPS | WSRDSSSFQVF the result was no signal (0 of 3 replicates).

For EGTSLRYDYAN | GKNNRPS | SSRDSHGFQVF, the assay gave 180 nM (3 of 3 replicates). With EGDSLRYGYAN | GKNNRCS | SSRDSSGFQVF the result was 4.1 nM (3 of 3 replicates). Variant EGDSLRYTYAN | GKNNRPC | SSRDSSGFQVF showed 17 nM (3 of 3 replicates). For EGDSLRYCYAN | GKNNRRS | SSPDSSGFQVF, the assay gave 3.8 µM (2 of 3 replicates). For EGDSLRVFYAN | GLNNRPS | SSRDSSGFQVF, the assay gave 13 µM (3 of 3 replicates). For FGDSLRYIHAN | GKNNRPS | SSRDSSGFQVF, the assay gave 620 nM (3 of 3 replicates). Variant EGVQLRYEYAN | GKNNRPS | SSRDSSGFQVF gave 73 nM (3 of 3 replicates).

Variant EGDSLRYSYAN | GKNNRPS | SSQDSSGFQVK showed 9.9 µM (2 of 3 replicates). With EGDSLRYHYAN | GKNNRPS | SSRDSSGFVVF the result was 160 nM (3 of 3 replicates). With EGDSLRYIYAN | GCNNRPS | SSRDSSGFQVF the result was no signal (0 of 3 replicates). Variant EGWSLRYGYAN | GKNNRPS | SSRDSSGMQVF showed 8.9 nM (3 of 3 replicates). For PGDSLRYSYAN | GKNNRPS | LSRDSSGFQVF, the assay gave 150 µM (2 of 3 replicates). For EGDSLRYDYAN | NKNNRPS | SVRDSSGFQVF, the assay gave 120 nM (3 of 3 replicates). For EGMSLRYIYAN | GKNNRPS | SSRDSSGFWVF, the assay gave 17 µM (2 of 3 replicates).

With EKDSLRYTYAN | GKNNRPS | SSRDSSGFQVY the result was 10 µM (3 of 3 replicates). With EGDSLRYLYAN | GKNNYPS | SSRDSSGFQVF the result was no signal (0 of 3 replicates). With EGDSLRYNLAN | GKNNRGS | SSRDSSGFQVF the result was 30 nM (3 of 3 replicates). With EGDSLRYQYAN | GKNNRPS | SSRDSGGFQVF the result was 16 nM (3 of 3 replicates). Variant EGDSLRYVYAN | GKNNHPH | SSRDSSGFQVF showed 770 nM (3 of 3 replicates). With EGDSLRYCYAN | GKNNRPS | SSRDSSGFQVF the result was 320 nM (3 of 3 replicates). Variant EGDSLRYLYAN | GKNNYPS | SSRQSSGFQVF gave no signal (0 of 3 replicates).

Variant EGDSLRAKYAN | GKNNRPS | SSRDSSGFQVF gave 18 nM (3 of 3 replicates). Variant EGDSLRYGYAK | GKNNRPS | SSRKSSGFQVF gave 970 nM (3 of 3 replicates). Variant EGDSLRYQYAN | GKNNRPS | GSRDSSGFQVY showed 2.5 nM (3 of 3 replicates). With EGDSLRYNYAN | KKNNRPS | SSRDSSGFQVF the result was 74 nM (3 of 3 replicates). For EGDSLRYDYAN | GVNNRPS | SSRQSSGFQVF, the assay gave 3.6 µM (1 of 3 replicates). Variant EGDSLRYCYLN | GKNNRYS | SSRDSSGFQVF gave 2.6 µM (3 of 3 replicates). Variant EGDSLRYPYAQ | GKNNRPS | SSRDSRGFQVF showed 2.2 µM (3 of 3 replicates).

Variant EGDSLPYNYAN | GKNNRPS | CSRDSSGFQVF showed 22 nM (3 of 3 replicates). Variant EGDSLRYFYAN | GKNNRPS | WSRDSSGFQKF showed no signal (0 of 3 replicates). Variant EGDSLRYDYAN | GKTNRPS | SSRDSSGFQVF gave 240 nM (3 of 3 replicates). Variant EGDSLRYIYYN | GKNNRPS | SSRDSSNFQVF showed 14 µM (3 of 3 replicates). With EGDSLRYWYAN | GKSNRPS | SSRDSSGFQFF the result was 3.4 µM (2 of 3 replicates). Variant EGDFLRYTYAN | GKNNRPS | SSRDSSGFQVF showed 30 nM (3 of 3 replicates). For EGDSLRYVYAN | GKNNRPS | SSRDSSNFQNF, the assay gave no signal (0 of 3 replicates).

For EGDSMRYNYAY | GKNNRPS | SSRDSSGFQVF, the assay gave 830 nM (3 of 3 replicates). For EGDSLRYPYAN | GKNNRFS | SSRDQSGFQVF, the assay gave 270 nM (3 of 3 replicates).

A selection of 5 entries from above:

CDR-L1	CDR-L2	CDR-L3	apparent Kd	detected
EGDSLRYCYAN	GKNNRRS	SSPDSSGFQVF	3.8 µM	2 of 3
EGDSLRYQYAN	GKNNRPS	GSRDSSGFQVY	2.5 nM	3 of 3
EGDSQRYDYAN	GKNNVPS	SSRDSSGFQVF	5.2 µM	3 of 3
EGDSLRYDYAN	GKNNRPS	SSRDSSQFQVF	360 nM	3 of 3
EGDSLRYRYAN	GKNNRPS	SSLDSSGFNVF	350 nM	3 of 3